ChEMBL document CHEMBL3639368, “Substituted benzimidazole-type piperidine compounds and uses thereof” (2015)

Assays:
[1] = target: Delta-type opioid receptor (Homo sapiens, UniProt P41143); assay: Radioligand Binding Assay: Radioligand dose-displacement assays used 0.2 nM [3H]-Naltrindole (NEN; 33.0 Ci/mmole) with 10-20 μg membrane protein (recombinant delta opioid receptor expressed in CHO-K1 cells; Perkin Elmer) in a final volume of 500 μL binding buffer (5 mM MgCl2, 5% DMSO, 50 mM Trizma base, pH 7.4). Non-specific binding was determined in the presence of 25 μM unlabeled naloxone. All r
[2] = target: Kappa-type opioid receptor (Homo sapiens, UniProt P41145); assay: Radioligand Binding Assay: Radioligand dose displacement assays used 0.4-0.8 nM [3H]-U69,593 (NEN; 40 Ci/mmole) with 10-20 μg membrane protein (recombinant kappa opioid receptor expressed in HEK 293 cells; in-house prep) in a final volume of 200 μL binding buffer (5% DMSO, 50 mM Trizma base, pH 7.4). Non-specific binding was determined in the presence of 10 μM unlabeled naloxone or U69,593. All re; conditions: sf9
Mu-type opioid receptor = Mu-type opioid receptor (Homo sapiens, UniProt P35372); assay: Radioligand Binding Assay: Radioligand binding assays were conducted using freshly thawed membranes expressing human mu-receptors (Perkin Elmer, Shelton, Conn.). Radioligand dose-displacement binding assays for human mu-opioid receptors used 0.2 nM[3H]-diprenorphine (NEN, Boston, Mass.), with 5-20 mg membrane protein/well in a final volume of 500 uL binding buffer (10 mM MgCl2, 1 mM EDTA, 5% DMSO,

Compound	Ki [1] [nM]	Ki [2] [nM]	Ki (Mu-type opioid receptor) [nM]
c1ccc2c(c1)nc(-c1cc[nH]n1)n2[C@H]1C[C@H]2CCC[C@@H](C1)N2[C@@H]1C[C@@H]2CCC[C@@H](C2)C1	6160	51	529
Cc1nnc(Cc2nc3ccccc3n2[C@H]2C[C@H]3CCC[C@@H](C2)N3[C@@H]2C[C@@H]3CCCC[C@@H](C3)C2)[nH]1		130	
O=C(O)CN1CCC[C@H]1Cc1nc2ccccc2n1[C@H]1C[C@H]2CCC[C@@H](C1)N2[C@@H]1C[C@@H]2CCCC[C@@H](C2)C1			2850
O=C(O)CN1CCC[C@H]1c1nc2ccccc2n1[C@H]1C[C@H]2CCC[C@@H](C1)N2[C@@H]1C[C@@H]2CCCC[C@@H](C2)C1	16200	150	3560
O=C(O)CO/N=C/c1nc2ccccc2n1[C@H]1C[C@H]2CCC[C@@H](C1)N2[C@H]1C[C@@H]2CCC[C@@H](C2)C1			1500
c1ccc2c(c1)nc(C[C@@H]1COCCN1)n2[C@H]1C[C@H]2CCC[C@@H](C1)N2[C@@H]1C[C@@H]2CCCC[C@@H](C2)C1		50.1	1670
O=C(O)CCN1CCC(Cc2nc3ccccc3n2[C@H]2C[C@H]3CCC[C@@H](C2)N3[C@@H]2C[C@@H]3CCCC[C@@H](C3)C2)CC1		822	
O=C(O)CN1CCC/C(=C2\N(CC(=O)O)c3ccccc3N2[C@H]2C[C@H]3CCC[C@@H](C2)N3[C@@H]2C[C@@H]3CCCC[C@@H](C3)C2)C1		41.3	
O=C(O)CCN1CC[C@@H](Cc2nc3ccccc3n2[C@H]2C[C@H]3CCC[C@@H](C2)N3[C@@H]2C[C@@H]3CCCC[C@@H](C3)C2)C1		614	4500
Cn1cc(Cl)c(-c2nc3ccccc3n2[C@H]2C[C@H]3CCC[C@@H](C2)N3[C@@H]2C[C@@H]3CCC[C@@H](C3)C2)n1	4170	79	952
c1ccc2c(c1)nc(Cc1cnccn1)n2[C@H]1C[C@H]2CCC[C@@H](C1)N2[C@@H]1C[C@@H]2CCCC[C@@H](C2)C1		115	
c1ccc2c(c1)nc(C[C@H]1COCCN1)n2[C@H]1C[C@H]2CCC[C@@H](C1)N2[C@@H]1C[C@@H]2CCCC[C@@H](C2)C1		31.3	1910
c1ccc2c(c1)nc(-c1cnc[nH]1)n2[C@H]1C[C@H]2CCC[C@@H](C1)N2[C@@H]1C[C@@H]2CCC[C@@H](C2)C1		89.6	520
OCc1nc2ccccc2n1C1C[C@H]2CCC[C@@H](C1)N2[C@H]1C[C@@H]2CCC[C@@H](C2)C1 (some centres not stated)		246	1580
O=C(O)CN1CCN(Cc2nc3ccccc3n2[C@H]2C[C@H]3CCC[C@@H](C2)N3[C@H]2C[C@@H]3CCC[C@@H](C3)C2)CC1	10900	6800	
O=C(O)CN1CCC[C@H](c2nc3ccccc3n2[C@H]2C[C@H]3CCC[C@@H](C2)N3[C@H]2C[C@@H]3CCC[C@@H](C3)C2)C1		353	

Compound	Ki [1] [nM]	Ki [2] [nM]	Ki (Mu-type opioid receptor) [nM]
O=C(O)CN1CCCC[C@@H]1c1nc2ccccc2n1[C@H]1C[C@H]2CCC[C@@H](C1)N2[C@@H]1C[C@@H]2CCCC[C@@H](C2)C1		16.3	11300
CS(=O)(=O)NCCN1CCC[C@H]1Cc1nc2ccccc2n1[C@H]1C[C@H]2CCC[C@@H](C1)N2[C@@H]1C[C@@H]2CCCC[C@@H](C2)C1		43.7	1840
O=C(O)CN1CCCC[C@H]1c1nc2ccccc2n1[C@H]1C[C@H]2CCC[C@@H](C1)N2[C@@H]1C[C@@H]2CCCC[C@@H](C2)C1		108	4640
O=C(O)CNc1nc2ccccc2n1C1C[C@H]2CCC[C@@H](C1)N2C1CCCCCCCCC1 (some centres not stated)	13600	265	
CS(=O)(=O)NCCN1CC[C@@H](Cc2nc3ccccc3n2[C@H]2C[C@H]3CCC[C@@H](C2)N3[C@@H]2C[C@@H]3CCCC[C@@H](C3)C2)C1			1880
O=C(O)CN1CCCC[C@H]1Cc1nc2ccccc2n1[C@H]1C[C@H]2CCC[C@@H](C1)N2[C@@H]1C[C@@H]2CCCC[C@@H](C2)C1		169	3000
CCN(CC)C(=O)CN1CC[C@@H](Cc2nc3ccccc3n2[C@H]2C[C@H]3CCC[C@@H](C2)N3[C@@H]2C[C@@H]3CCCC[C@@H](C3)C2)C1		30.4	3010
NC(=O)/N=c1\[nH]c2ccccc2n1C1CCN(C2CCCCCCC2)CC1	10300	33.7	339
CONC(=N)/N=c1\[nH]c2ccccc2n1C1CCN(C2CCCCCCC2)CC1	5650		2470
O=C(O)CCN1CCC[C@@H]1c1nc2ccccc2n1[C@H]1C[C@H]2CCC[C@@H](C1)N2[C@@H]1C[C@@H]2CCCC[C@@H](C2)C1		828	5540
CCOC(=N)/N=c1\[nH]c2ccccc2n1C1CCN(C2CCCCCCC2)CC1	1620	59	511
O=C(O)CN1CCC[C@@H]1c1nc2ccccc2n1[C@H]1C[C@H]2CCC[C@@H](C1)N2[C@@H]1C[C@@H]2CCCC[C@@H](C2)C1	5270		1110
O=C(O)CCN1CCC[C@H]1Cc1nc2ccccc2n1[C@H]1C[C@H]2CCC[C@@H](C1)N2[C@@H]1C[C@@H]2CCCC[C@@H](C2)C1		444	
NC(=O)CN1CCC[C@H]1c1nc2ccccc2n1[C@H]1C[C@H]2CCC[C@@H](C1)N2[C@@H]1C[C@@H]2CCCC[C@@H](C2)C1		123	
O=C(O)CN1CCC[C@H](c2nc3ccccc3n2[C@H]2C[C@H]3CCC[C@@H](C2)N3[C@@H]2C[C@@H]3CCCC[C@@H](C3)C2)C1		700	7450
